Assay results published in ChEMBL document CHEMBL1154321, “Benzoxazole piperidines as selective and potent somatostatin receptor subtype 5 antagonists” (Bioorg Med Chem Lett, 2009).
This is a selection: effects in other tests are not listed, and their absence says nothing.

Protein sequences, listed by entry. Tags and fused reporters are not part of them.
UniProt P31391, whole entry: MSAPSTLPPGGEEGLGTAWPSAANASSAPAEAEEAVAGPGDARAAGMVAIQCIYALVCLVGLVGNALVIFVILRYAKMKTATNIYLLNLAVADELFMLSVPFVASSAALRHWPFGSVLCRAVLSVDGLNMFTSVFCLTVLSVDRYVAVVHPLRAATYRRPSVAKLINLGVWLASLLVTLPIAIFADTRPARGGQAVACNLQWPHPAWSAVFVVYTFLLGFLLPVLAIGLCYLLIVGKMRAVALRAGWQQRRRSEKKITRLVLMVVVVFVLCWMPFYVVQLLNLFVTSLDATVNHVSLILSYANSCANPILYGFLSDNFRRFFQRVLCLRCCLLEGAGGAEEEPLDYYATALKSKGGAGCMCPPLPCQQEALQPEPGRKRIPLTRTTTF
UniProt P32745, whole entry: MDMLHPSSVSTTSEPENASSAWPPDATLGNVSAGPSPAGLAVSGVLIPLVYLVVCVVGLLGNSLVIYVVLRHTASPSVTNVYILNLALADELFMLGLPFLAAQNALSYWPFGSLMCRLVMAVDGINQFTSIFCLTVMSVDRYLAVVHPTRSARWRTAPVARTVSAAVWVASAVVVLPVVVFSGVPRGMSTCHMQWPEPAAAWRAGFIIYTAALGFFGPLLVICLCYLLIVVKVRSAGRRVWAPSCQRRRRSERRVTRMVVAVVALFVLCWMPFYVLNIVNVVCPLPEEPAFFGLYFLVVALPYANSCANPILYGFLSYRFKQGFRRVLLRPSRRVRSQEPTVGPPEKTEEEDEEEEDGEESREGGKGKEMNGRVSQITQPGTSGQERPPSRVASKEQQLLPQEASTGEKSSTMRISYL
UniProt P35346, whole entry: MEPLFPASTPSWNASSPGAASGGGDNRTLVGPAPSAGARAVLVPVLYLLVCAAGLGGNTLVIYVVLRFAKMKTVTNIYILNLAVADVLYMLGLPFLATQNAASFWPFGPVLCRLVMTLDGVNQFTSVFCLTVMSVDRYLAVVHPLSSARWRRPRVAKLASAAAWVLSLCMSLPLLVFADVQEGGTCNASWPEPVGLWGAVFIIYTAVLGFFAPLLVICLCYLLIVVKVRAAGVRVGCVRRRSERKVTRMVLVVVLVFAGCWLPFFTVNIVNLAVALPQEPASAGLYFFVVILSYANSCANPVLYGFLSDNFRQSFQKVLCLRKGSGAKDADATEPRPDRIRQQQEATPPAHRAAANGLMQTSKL
UniProt P30874, whole entry: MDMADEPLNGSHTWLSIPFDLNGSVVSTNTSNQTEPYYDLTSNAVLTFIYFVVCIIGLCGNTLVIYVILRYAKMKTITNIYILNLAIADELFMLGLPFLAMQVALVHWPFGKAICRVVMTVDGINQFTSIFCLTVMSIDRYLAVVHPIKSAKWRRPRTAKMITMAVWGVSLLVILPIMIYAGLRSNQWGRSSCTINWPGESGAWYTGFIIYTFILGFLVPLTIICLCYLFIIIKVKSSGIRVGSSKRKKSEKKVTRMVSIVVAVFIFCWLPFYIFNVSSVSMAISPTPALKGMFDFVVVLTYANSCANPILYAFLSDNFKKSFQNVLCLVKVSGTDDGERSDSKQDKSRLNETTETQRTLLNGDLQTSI

Tests used:
[1] = biological target: Somatostatin receptor type 4 (Homo sapiens, UniProt P31391); experiment: Displacement of SST14 from human recombinant SST4 receptor
Summary of the method: (§1)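 Membranes prepared by sonication from cells expressing the SST receptor subtype, incubated with radiolabeled 11-Tyr SST-14 tracer and test compound at varying concentrations; non-labeled SST-14 defined non-specific binding. Incubation stopped by glass-fiber filtration, bound radioactivity counted; IC50 for half-maximal binding inhibition estimated and Ki derived.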

[2] = biological target: Somatostatin receptor type 3 (Homo sapiens, UniProt P32745); experiment: Displacement of SST14 from human recombinant SST3 receptor; summary of the method: as §1
[3] = biological target: Somatostatin receptor type 5 (Homo sapiens, UniProt P35346); experiment: Displacement of SST14 from human recombinant SST5 receptor expressed in CHO cells by radioligand binding assay
[4] = biological target: Somatostatin receptor type 2 (Homo sapiens, UniProt P30874); experiment: Displacement of SST14 from human recombinant SST2 receptor; summary of the method: as §1

CCOc1cc(NC2CCN(Cc3nc4ccccc4s3)CC2)ccc1OC
Ki [1]: > 10 µM
Ki [2]: > 10 µM
Ki [3]: > 1 µM
Ki [4]: > 10 µM
